These are literature values, as cited in patent publication US4594358A, “Analgesic method” (Eli Lilly and Company, priority 1985, dated 1986).

Molecules are shown by their SMILES.

The series concerns serotonin uptake. As to conditions: Fuller et al. 1975; Wong et al.; cited from earlier work.

As to `CNCCC(Oc1ccc(C(F)(F)F)cc1)c1ccccc1` (stereo not shown) [Fluoxetine, 3-(4-trifluoromethylphenoxy)-N-methyl-3-phenylpropylamine], the “inhibition of serotonin uptake (in words)” value is given as “highly specific inhibitor of serotonin uptake”.
